Results on one substance are retold here after patent publication US20260199496A1, “LINKER, LINKER-CONTAINING ANTIBODY DRUG CONJUGATE, AND PREPARATION METHOD THEREFOR AND USE THEREOF” (CHENGDU CHIPSCREEN NEWWAY BIOSCIENCES CO., LTD., priority 2022, published 2026).

The target in this experiment is Rat PD-L1-his (Rattus norvegicus, UniProt D4AE25). As to the kind of experiment: SPR (Biacore T200) affinity for Rat PD-L1-his. To be noted: ligand Rat-PD-L1-His, 1:1 binding model. The method, then:
[…] Cyno PD-L1-his was captured onto the chip surface. The antibody-drug conjugate samples and the naked antibody sample were 2-fold diluted with 1×PBST to give a total of 7 concentration points, with the sample concentrations all being 25 nM-0.39 nM. The program was set. The samples were then loaded, and the program was executed. Data were analyzed using the Biacore Evaluation Software with the 1:1 binding model for kinetic fitting. The above steps were repeated. 2 μg/mL hPD-L1-his, 5 μg/mL mPD-L1-his, and 5 µg/mL Rat PD-L1-his were captured onto the chip surface separately. The above 4 samples were 2-fold diluted with 1×PBST. […] The program was set. The samples were then loaded, and the program was executed. Data were analyzed using the Biacore Evaluation Software with the 1:1 binding model for kinetic fitting.
In general terms: Surface plasmon resonance follows binding to a sensor surface in real time, without labels.

Broadly, the Kd is a measure of binding affinity in units of concentration. Regarding atezolizumab [Ate antibody], binding was characterised by a dissociation constant (Kd) of 0.343 nM.
